Test system: immortalized human renal cells
Assay: chemosensitivity of renal cells to gentamicin, apoptotic and necrotic cells counted by flow cytometry
Assay type: cell-based
Conditions: 3D cultures in a rotating wall vessel; gentamicin 0.05, 0.5, 5 or 50 mg/ml; DMEM/F12 with 10% calf serum; not seen in monolayer or bag culture on beads
Experimental: Immortalized human renal cells were cultured for 24 hours in either a monolayer (diamonds), as 3D cultures in a bag with beads for support (squares), or as 3D cultures in a rotating wall vessel (triangles), and treated with 0.05, 0.5, 5 or 50 mg/ml throughout the time period of the culture.
In order to compare the chemosensitivity of cells in a monolayer relative to those in a 3D aggregate either under static conditions, or falling at terminal velocity with applied shear, immortalized human renal cells were cultured in DMEM/F12 medium with 10% calf serum for 24 hours in either a Monolayer, a conventional cell bag culture or a rotating wall vessel. In separate aliquots of cells in separate vessels, gentamicin was added throughout the time period of culture at concentrations of 0.05, 0.5, 5 or 50 mg/ml. The cells in all cultures were then treated with gentamicin for six hours and the number of apoptotic and necrotic cells were counted using a flow cytometry assay. FIG. 10 depicts one data set for this experiment in which the monolayer is depicted as diamonds, the 3-dimensional cultures grown on beads in a bag are depicted as squares, and the 3-dimensional cultures in the rotating wall vessel are depicted as triangles. As judged by Kogomorov-Smirnoff summation statistics, renal cell growth on beads under static condition increases basal cell death rates.

gentamicin
cell death (number of apoptotic and necrotic cells) in response to gentamicin: induced dose-dependent cell death

From patent publication US7244578B2, “Methods for modeling infectious disease and chemosensitivity in cultured cells and tissues” (Department of Veterans Affairs, priority 2001, dated 2007)
